Laboratory results reported in publication PMC6270201, “Eco-Friendly Synthesis and Antiproliferative Evaluation of Some Oxygen Substituted Diaryl Ketones” (Molecules, 2013).

Tested on: Balb/3T3 fibroblasts vs T24, DU-145 and MCF7 tumor cells
Test: Mean selective index, fibroblasts versus tumor cells
Assay type: cell-based
Conditions: EC50 values fibroblasts/EC50 values tumor cells
Method: These values were calculated from their effects on MTT reduction in three cancer cell lines and Balb/3T3 non transformed mouse fibroblasts as a function of their concentration during 48 h of incubation.

In the case of `CO[C@@]12[C@H](COC(N)=O)C3=C(C(=O)C(C)=C(N)C3=O)N1C[C@@H]1N[C@@H]12` [MIT, mitomycin C, reference compound], the “MSI: Mean Selective Index” value is reported as 1.39.
